Results as given in patent US20230151069A1, “Cyclic Peptides” (LIFEARC, priority 2020, published 2023).
Where two headings read alike, the source gives them in different places.

Key:
TAP01 (MoG1K) antibody = experiment: Thioacetal bridged cyclic peptide binding ELISA with TAP01 antibody; set-up: species or system mouse
Protocol: (§1) • 1. […] Incubate at 4° C. overnight • 3. Wash the plate (NUNC 384 program) • 4. […] Incubate at RT for 1 hour • 6. Wash the plate (NUNC 384 program) • 7. […] Incubate at 4° C. overnight • 9. Wash the plate (NUNC 384 program) • 10. […] Transfer 30 μL/well onto the assay plate • 12. Incubate at 37° C. for 1 hour • 13. Wash the plate (NUNC 384 program) • 14. […] Incubate at 37° C. for 1 hour 16. Wash the plate (NUNC 384 program) 17. […] Incubate at RT for 10 min in the dark 19.
The 1-14 thioacetal bridged cyclic peptide assessed in the above experiments has cysteine residues at positions 3 and 12 for the thioacetal bridge to constrain the peptide. In order to assess the role positioning the cysteine residues at positions 3 and 12 has for binding of the TAP01 antibody, additional peptides were generated with cysteine residues at different positions within the peptide sequence (Table 4).
(§2) Binding of the TAP01 antibody has been assessed to these thioacetal bridged cyclic peptide variants by ELISA (FIGS. 20-22 and Table 5). Binding to comparators antibodies was also assessed.
(§3) Binding of the TAP01 antibody has been assessed to these thioacetal bridged cyclic peptide variants and to cyclic peptide 3, 12, cyclic peptide 2, 10, cyclic peptide 2, 12, and cyclic peptide 2, 13 by ELISA (FIG. 25, Table 7). Binding to comparator antibodies was also assessed (FIG. 26).

Bapineuzumab = experiment: Cyclic peptide binding ELISA with comparator antibody Bapineuzumab
Protocol: as §1, §2, §3

TAP01 antibody = experiment: Proline mutated peptide binding to TAP01 antibody using Biacore T200; set-up: species or system mouse; conditions: Biacore T200, FIG. 23
Text: To determine the mechanism of action of the amyloid peptides to the TAP01 antibody, five peptides whereby proline residues substituted the actual amino acids found in the peptide (Table 8) were generated and binding of these peptides to the TAP01 antibody was investigated (FIG. 23).

[1] = TAP01 (MoG1K) binding to thioacetal bridged cyclic peptide variants, Table 7, read-out: EC50
[2] = TAP01 (MoG1K) binding to thioacetal bridged cyclic peptide variants, Table 5, read-out: EC50
[3] = TAP01 (MoG1K), FIG. 25, unit inferred, read-out: calculated EC50 value

| Compound | EC50 (TAP01 (MoG1K) antibody; [2]) [nM] | binding to comparator antibody Bapineuzumab (Bapineuzumab; FIGS. 7, 22, 26, 34) | further results |
| --- | --- | --- | --- |
| CC(C)[C@H](NC(=O)[C@@H]1CSCSC[C@H](N)C(=O)N[C@@H](C)C(=O)N[C@@H](CCC(=O)O)C(=O)N[C@@H](Cc2ccccc2)C(=O)N[C@@H](CCCNC(=N)N)C(=O)N[C@@H](Cc2c[nH]cn2)C(=O)N[C@@H](CC(=O)O)C(=O)N[C@@H](CO)C(=O)NCC(=O)N[C@@H](Cc2ccc(O)cc2)C(=O)N1)C(=O)N[C@@H](Cc1c[nH]cn1)C(=O)N[C@@H](Cc1c[nH]cn1)C(=O)O [1, 11] |  |  | EC50 (TAP01 (MoG1K) antibody; [1]): 111 nM |
| C[C@@H]1NC(=O)[C@@H](N)CSCSC[C@@H](C(=O)N[C@@H](Cc2c[nH]cn2)C(=O)N[C@@H](Cc2c[nH]cn2)C(=O)O)NC(=O)[C@H](CCC(=O)O)NC(=O)[C@H](Cc2ccc(O)cc2)NC(=O)CNC(=O)[C@H](CO)NC(=O)[C@H](CC(=O)O)NC(=O)[C@H](Cc2c[nH]cn2)NC(=O)[C@H](CCCNC(=N)N)NC(=O)[C@H](Cc2ccccc2)NC(=O)[C@H](CCC(=O)O)NC1=O [1, 12] |  |  | EC50 (TAP01 (MoG1K) antibody; [1]): 9.5 nM |
| CC(C)[C@@H]1NC(=O)[C@H](CCC(=O)O)NC(=O)[C@H](Cc2ccc(O)cc2)NC(=O)CNC(=O)[C@H](CO)NC(=O)[C@H](CC(=O)O)NC(=O)[C@H](Cc2c[nH]cn2)NC(=O)[C@H](CCCNC(=N)N)NC(=O)[C@H](Cc2ccccc2)NC(=O)[C@H](CCC(=O)O)NC(=O)[C@H](C)NC(=O)[C@@H](N)CSCSC[C@@H](C(=O)N[C@@H](Cc2c[nH]cn2)C(=O)O)NC1=O [1, 13] |  |  | EC50 (TAP01 (MoG1K) antibody; [1]): 3.5 nM |
| CC(C)[C@H](NC(=O)[C@@H]1CSCSC[C@H](NC(=O)[C@@H](N)CC(=O)O)C(=O)N[C@@H](CCC(=O)O)C(=O)N[C@@H](Cc2ccccc2)C(=O)N[C@@H](CCCNC(=N)N)C(=O)N[C@@H](Cc2c[nH]cn2)C(=O)N[C@@H](CC(=O)O)C(=O)N[C@@H](CO)C(=O)NCC(=O)N[C@@H](Cc2ccc(O)cc2)C(=O)N1)C(=O)N[C@@H](Cc1c[nH]cn1)C(=O)N[C@@H](Cc1c[nH]cn1)C(=O)O [2, 11] | 261 |  |  |
| CC(C)[C@H](NC(=O)[C@@H]1CSCSC[C@H](NC(=O)[C@H](C)NC(=O)[C@@H](N)CC(=O)O)C(=O)N[C@@H](Cc2ccccc2)C(=O)N[C@@H](CCCNC(=N)N)C(=O)N[C@@H](Cc2c[nH]cn2)C(=O)N[C@@H](CC(=O)O)C(=O)N[C@@H](CO)C(=O)NCC(=O)N[C@@H](Cc2ccc(O)cc2)C(=O)N1)C(=O)N[C@@H](Cc1c[nH]cn1)C(=O)N[C@@H](Cc1c[nH]cn1)C(=O)O [3, 11] | 79.7 |  |  |
| CC(C)[C@@H]1NC(=O)[C@H](CCC(=O)O)NC(=O)[C@H](Cc2ccc(O)cc2)NC(=O)CNC(=O)[C@H](CO)NC(=O)[C@H](CC(=O)O)NC(=O)[C@H](Cc2c[nH]cn2)NC(=O)[C@H](CCCNC(=N)N)NC(=O)[C@H](Cc2ccccc2)NC(=O)[C@@H](NC(=O)[C@H](C)NC(=O)[C@@H](N)CC(=O)O)CSCSC[C@@H](C(=O)N[C@@H](Cc2c[nH]cn2)C(=O)O)NC1=O [3, 13] |  |  | EC50 (TAP01 (MoG1K) antibody; [1]): 5.41 nM |
| CC(C)[C@H](NC(=O)[C@@H]1CSCSC[C@H](N)C(=O)N[C@@H](C)C(=O)N[C@@H](CCC(=O)O)C(=O)N[C@@H](Cc2ccccc2)C(=O)N[C@@H](CCCNC(=N)N)C(=O)N[C@@H](Cc2c[nH]cn2)C(=O)N[C@@H](CC(=O)O)C(=O)N[C@@H](CO)C(=O)NCC(=O)N[C@@H](Cc2ccc(O)cc2)C(=O)N1)C(=O)N[C@@H](Cc1c[nH]cn1)C(=O)N[C@@H](Cc1c[nH]cn1)C(=O)O [Peptide 1, 11] |  | Binding to the comparator antibody Bapineuzumab was seen | EC50 (TAP01 (MoG1K) antibody; [3]): 111 nM |
| C[C@@H]1NC(=O)[C@@H](N)CSCSC[C@@H](C(=O)N[C@@H](Cc2c[nH]cn2)C(=O)N[C@@H](Cc2c[nH]cn2)C(=O)O)NC(=O)[C@H](CCC(=O)O)NC(=O)[C@H](Cc2ccc(O)cc2)NC(=O)CNC(=O)[C@H](CO)NC(=O)[C@H](CC(=O)O)NC(=O)[C@H](Cc2c[nH]cn2)NC(=O)[C@H](CCCNC(=N)N)NC(=O)[C@H](Cc2ccccc2)NC(=O)[C@H](CCC(=O)O)NC1=O [Peptide 1, 12] |  | Binding to the comparator antibody Bapineuzumab was seen | EC50 (TAP01 (MoG1K) antibody; [3]): 9.5 nM |
| CC(C)[C@@H]1NC(=O)[C@H](CCC(=O)O)NC(=O)[C@H](Cc2ccc(O)cc2)NC(=O)CNC(=O)[C@H](CO)NC(=O)[C@H](CC(=O)O)NC(=O)[C@H](Cc2c[nH]cn2)NC(=O)[C@H](CCCNC(=N)N)NC(=O)[C@H](Cc2ccccc2)NC(=O)[C@H](CCC(=O)O)NC(=O)[C@H](C)NC(=O)[C@@H](N)CSCSC[C@@H](C(=O)N[C@@H](Cc2c[nH]cn2)C(=O)O)NC1=O [Peptide 1, 13] |  | Binding to the comparator antibody Bapineuzumab was seen | EC50 (TAP01 (MoG1K) antibody; [3]): 3.5 nM |
| N=C(N)NCCC[C@@H]1NC(=O)[C@H](Cc2ccccc2)NC(=O)[C@H](CCC(=O)O)NC(=O)[C@@H](NC(=O)[C@@H](N)CC(=O)O)CSCSC[C@@H](C(=O)N[C@@H](Cc2c[nH]cn2)C(=O)N[C@@H](Cc2c[nH]cn2)C(=O)O)NC(=O)[C@H](CCC(=O)O)NC(=O)[C@H](Cc2ccc(O)cc2)NC(=O)CNC(=O)[C@H](CO)NC(=O)[C@H](CC(=O)O)NC(=O)[C@H](Cc2c[nH]cn2)NC1=O [Peptide 2, 12] | 0.24 | able to bind | binding to comparator antibody Bapineuzumab (Bapineuzumab; FIGS. 7, 22, 26, 34, listed as cyclic peptide 2, 12): Binding to the comparator antibody Bapineuzumab was seen |
| CC(C)[C@@H]1NC(=O)[C@H](CCC(=O)O)NC(=O)[C@H](Cc2ccc(O)cc2)NC(=O)CNC(=O)[C@H](CO)NC(=O)[C@H](CC(=O)O)NC(=O)[C@H](Cc2c[nH]cn2)NC(=O)[C@H](CCCNC(=N)N)NC(=O)[C@H](Cc2ccccc2)NC(=O)[C@H](CCC(=O)O)NC(=O)[C@@H](NC(=O)[C@@H](N)CC(=O)O)CSCSC[C@@H](C(=O)N[C@@H](Cc2c[nH]cn2)C(=O)O)NC1=O [Peptide 2, 13] | 1.56 | able to bind | binding to comparator antibody Bapineuzumab (Bapineuzumab; FIGS. 7, 22, 26, 34, listed as cyclic peptide 2, 13): Binding to the comparator antibody Bapineuzumab was seen |
| C[C@H](NC(=O)[C@@H](N)CC(=O)O)C(=O)N[C@H]1CSCSC[C@@H](C(=O)N[C@@H](Cc2c[nH]cn2)C(=O)N[C@@H](Cc2c[nH]cn2)C(=O)O)NC(=O)[C@H](CCC(=O)O)NC(=O)[C@H](Cc2ccc(O)cc2)NC(=O)CNC(=O)[C@H](CO)NC(=O)[C@H](CC(=O)O)NC(=O)[C@H](Cc2c[nH]cn2)NC(=O)[C@H](CCCNC(=N)N)NC(=O)[C@H](Cc2ccccc2)NC1=O [Peptide 3, 12] | 13.3 | No binding |  |
| DACFRHDSGYEVCH-Biotin [Peptide 3, 13] |  | no binding |  |
| DPEFRHDSGYEVHH (Residue 2 (A to P)) |  |  | binding to TAP01 antibody (TAP01 antibody): no binding observed |
| PAEFRHDSGYEVHH (Residue 1 (D to P)) |  |  | binding to TAP01 antibody (TAP01 antibody): bind in a dose dependant manner |
